Test results taken from patent US6413935.

Molecular target: mouse class II IA^s, purified from LS102.9 cells (mouse)
Assay: 125I-peptide inhibition, purified class II

B1: 1024.03 (peptide)
peptide: AKFVAAWTLKAAA
modifications: not checked
IC50: 1060 nM
